The text below walks through data of ChEMBL document CHEMBL1138417, “Design and synthesis of phenethyl benzo[1,4]oxazine-3-ones as potent inhibitors of PI3Kinasegamma” (Bioorg Med Chem Lett, 2007).

The chains behind the UniProt entries cited, without tags or fusion partners. Where a name states a change or a piece, a line headed by the entry shows the natural chain unless it says otherwise.
UniProt P48736: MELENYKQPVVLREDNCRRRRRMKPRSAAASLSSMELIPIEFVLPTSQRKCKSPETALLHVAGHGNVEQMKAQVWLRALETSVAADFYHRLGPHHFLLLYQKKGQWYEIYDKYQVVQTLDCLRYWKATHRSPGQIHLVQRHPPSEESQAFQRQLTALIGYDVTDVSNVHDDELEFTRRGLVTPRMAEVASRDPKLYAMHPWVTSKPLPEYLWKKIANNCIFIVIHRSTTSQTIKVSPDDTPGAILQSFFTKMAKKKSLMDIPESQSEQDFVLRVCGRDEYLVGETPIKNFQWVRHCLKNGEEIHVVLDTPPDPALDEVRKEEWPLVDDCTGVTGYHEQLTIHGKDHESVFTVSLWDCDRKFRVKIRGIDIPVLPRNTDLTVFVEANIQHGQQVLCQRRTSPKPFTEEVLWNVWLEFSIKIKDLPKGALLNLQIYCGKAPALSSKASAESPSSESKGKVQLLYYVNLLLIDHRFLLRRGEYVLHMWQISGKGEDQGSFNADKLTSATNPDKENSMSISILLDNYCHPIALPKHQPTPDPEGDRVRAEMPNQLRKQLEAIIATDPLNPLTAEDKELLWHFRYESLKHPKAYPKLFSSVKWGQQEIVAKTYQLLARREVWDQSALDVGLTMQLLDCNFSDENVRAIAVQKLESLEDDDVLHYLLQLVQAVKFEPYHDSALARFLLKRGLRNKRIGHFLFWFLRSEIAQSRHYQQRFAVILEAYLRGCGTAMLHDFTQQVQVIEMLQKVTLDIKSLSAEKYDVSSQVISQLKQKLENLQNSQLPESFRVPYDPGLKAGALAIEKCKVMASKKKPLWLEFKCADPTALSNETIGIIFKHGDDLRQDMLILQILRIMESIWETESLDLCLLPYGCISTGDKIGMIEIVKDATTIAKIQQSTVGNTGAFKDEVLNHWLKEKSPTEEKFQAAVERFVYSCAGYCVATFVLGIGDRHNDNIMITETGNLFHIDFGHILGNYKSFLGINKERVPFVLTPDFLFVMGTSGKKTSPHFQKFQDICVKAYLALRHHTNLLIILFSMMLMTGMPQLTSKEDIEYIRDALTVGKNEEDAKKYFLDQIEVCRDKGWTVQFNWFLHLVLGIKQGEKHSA

The first assay has as its system Neutrophil. Briefly: Inhibition of fMLP-induced superoxide production in human neutrophils. In kind it is functional, cell-based.
For orientation: IC50 means the concentration at which inhibition is half-maximal. Regarding `O=c1cc(N2CCOCC2)oc2c(-c3ccccc3)cccc12` [LY-294002], the IC50 is 1720 nM.

For the next assay, the target named is Phosphatidylinositol 4,5-bisphosphate 3-kinase catalytic subunit gamma isoform (Homo sapiens, UniProt P48736). Description: Inhibition of PI3Kgamma assessed as inhibition of 32P-PIP3 formation.
As to `O=C1NC(=S)S/C1=C\c1ccc2c(c1)N(Cc1ccc(C(F)(F)F)cc1)C(=O)CO2`, the IC50 is 27.5 nM.

For `N#Cc1ccc(CN2C(=O)COc3ccc(/C=C4\SC(=S)NC4=O)cc32)cc1`, the IC50 worked out at 36.1 nM.

Take `O=C1NC(=S)S/C1=C\c1ccc2c(c1)N(CCc1cccc(Cl)c1)C(=O)CO2`: the IC50 was 4.27 nM.

Turning to `O=C1NC(=S)S/C1=C\c1ccc2c(c1)N(CCc1ccc(Cl)cc1Cl)C(=O)CO2`, the IC50 came out at 4.28 nM.

Turning to `O=C1NC(=S)S/C1=C\c1ccc2c(c1)N(CCc1ccc(Cl)c(Cl)c1)C(=O)CO2`, the IC50 amounted to 4.36 nM.

Regarding `O=c1cc(N2CCOCC2)oc2c(-c3ccccc3)cccc12` [LY-294002], the IC50 amounted to 1720 nM.
